Target: KCNT1 (KNa1.1, Slack) (Homo sapiens, UniProt Q5JUK3)
Experiment: KCNT1-WT-Basal patch clamp assay (SyncroPatch 384PE, HEK-TREX inducible cell line)
Assay type: cell-based
Conditions: read-out: KCNT1 WB IC50; tetracycline inducible HEK-TREX cells; perforated patch; holding -80 mV, 100 ms step to 0 mV; room temperature
Method: KCNT1-WT-Basal—Patch Clamp Assay
Inhibition of KCNT1 (KNa1.1, Slack) was evaluated using a tetracycline inducible cell line (HEK-TREX). Currents were recorded using the SyncroPatch 384PE automated, patch clamp system. Pulse generation and data collection were performed with PatchController384 V1.3.0 and DataController384 V1.2.1 (Nanion Technologies). The access resistance and apparent membrane capacitance were estimated using built-in protocols. Current were recorded in perforated patch mode (10 μM escin) from a population of cells. The cells were lifted, triturated, and resuspended at 800,000 cells/ml. The cells were allowed to recover in the cell hotel prior to experimentation. Currents were recorded at room temperature. The external solution contained the following (in mM): NaCl 105, NMDG 40, KCl 4, MgCl2 1, CaCl2 5 and HEPES 10 (pH=7.4, Osmolarity ˜300 mOsm). The extracellular solution was used as the wash, reference and compound delivery solution. The internal solution contained the following (in mM): NaCl 70, KF 70, KCl 10, EGTA 5, HEPES 5 and Escin 0.01 (pH=7.2, Osmolarity ˜295 mOsm). Escin is made at a 5 mM stock in water, aliquoted, and stored at −20° C. The compound plate was created at 2× concentrated in the extracellular solution. The compound was diluted to 1:2 when added to the recording well. The amount of DMSO in the extracellular solution was held constant at the level used for the highest tested concentration. A holding potential of −80 mV with a 100 ms step to 0 mV was used. Mean current was measured during the step to 0 mV. […] The average mean current from 3 sweeps was calculated and the % inhibition of each compound was calculated. The % Inhibition as a function of the compound concentration was fit with a Hill equation to derive IC50, slope, min and max parameters. If KCNT1 inhibition was less than 50% at the highest tested concentration or if an IC50 could not be calculated, then a percent inhibition was reported in place of the IC50. […]

Amino acid sequences for entries named in this document (tags omitted).
UniProt Q5JUK3, whole entry: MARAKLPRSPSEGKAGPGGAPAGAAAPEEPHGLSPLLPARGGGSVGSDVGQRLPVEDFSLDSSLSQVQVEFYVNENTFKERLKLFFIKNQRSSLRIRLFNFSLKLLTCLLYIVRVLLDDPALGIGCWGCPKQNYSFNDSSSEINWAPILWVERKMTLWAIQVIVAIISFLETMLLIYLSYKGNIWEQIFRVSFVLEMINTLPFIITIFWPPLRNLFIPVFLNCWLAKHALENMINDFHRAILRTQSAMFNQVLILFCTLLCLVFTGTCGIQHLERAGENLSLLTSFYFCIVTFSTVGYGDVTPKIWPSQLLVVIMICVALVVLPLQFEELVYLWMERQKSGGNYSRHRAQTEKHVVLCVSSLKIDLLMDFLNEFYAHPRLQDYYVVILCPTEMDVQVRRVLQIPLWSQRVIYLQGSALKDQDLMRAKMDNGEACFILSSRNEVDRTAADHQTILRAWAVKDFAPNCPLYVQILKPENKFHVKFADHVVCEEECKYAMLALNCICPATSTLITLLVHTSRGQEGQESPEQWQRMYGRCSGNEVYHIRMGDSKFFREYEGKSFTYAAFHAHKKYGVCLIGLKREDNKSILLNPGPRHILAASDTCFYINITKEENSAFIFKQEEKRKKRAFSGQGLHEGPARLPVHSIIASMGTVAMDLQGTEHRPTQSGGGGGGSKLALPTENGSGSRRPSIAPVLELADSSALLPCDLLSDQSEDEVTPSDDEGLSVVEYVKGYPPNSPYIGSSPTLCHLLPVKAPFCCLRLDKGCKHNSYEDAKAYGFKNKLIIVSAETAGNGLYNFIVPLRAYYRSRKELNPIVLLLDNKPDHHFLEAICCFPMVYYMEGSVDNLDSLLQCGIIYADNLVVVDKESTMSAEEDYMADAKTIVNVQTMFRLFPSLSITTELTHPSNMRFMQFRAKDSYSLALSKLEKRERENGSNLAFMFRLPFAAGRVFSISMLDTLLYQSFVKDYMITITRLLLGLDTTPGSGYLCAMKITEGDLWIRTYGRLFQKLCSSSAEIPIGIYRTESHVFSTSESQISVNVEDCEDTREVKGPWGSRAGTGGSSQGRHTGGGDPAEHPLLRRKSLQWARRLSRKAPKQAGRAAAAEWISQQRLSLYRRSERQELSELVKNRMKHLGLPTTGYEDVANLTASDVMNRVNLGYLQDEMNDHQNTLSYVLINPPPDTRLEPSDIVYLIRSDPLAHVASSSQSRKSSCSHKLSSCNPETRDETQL

Which IC50 does the source give for `CN(c1ccc(C(=O)N[C@@H]2CCc3cc(Cl)ccc32)cc1)S(=O)(=O)C(F)(F)F` here?
The IC50 was 1 to 20 µM.

`CS(=O)(=O)Cc1ccc(C(=O)N[C@@H]2CCc3cc(Cl)ccc32)s1` was tested. Which IC50 did it give?
Its IC50 is less than 1 µM.

With `CS(=O)(=O)c1ccc(C(=O)NC2CCCc3cc(Cl)ccc32)cc1` (single isomer, unassigned) as the molecule, how does the IC50 read?
The IC50 was greater than 20 µM.
